# Measurements as given in patent publication US5723719A, “Transgenic mouse as model for diseases involving dopaminergic dysfunction” (Health Research Inc., priority 1995, dated 1998).
# Entries after “also recorded” stand apart in the source; their conditions may differ.
# Tested on: transgenic mice and control mice
# Conditions: mouse, in vivo
structure (smiles),measurement,value
CCCN1CCC[C@@H]2Cc3n[nH]cc3C[C@H]21 [quinpirole],"Stereotyped sniffing (summed score, 1 hour)",equivalent dose-related increases in stereotyped sniffing; also recorded: greater sniffing than control mice at the 1.0 mg/kg dose only
